Binding of CDR-mutated scFvs to a peptide of the spike HR2 region

Source: Engelhart et al. 2022 (doi:10.1038/s41597-022-01779-4), MIT Lincoln Laboratory and A-Alpha Bio; data file from the FLAb repository.

The target is the same throughout: PDVDLGDISGINAS, from the HR2 region of SARS-CoV-2 spike.

Ab-95 is the parent antibody, in scFv form: VH, then a 15-residue (Gly4Ser)3 linker, then VL. The heavy chain is unchanged in all variants.
VH: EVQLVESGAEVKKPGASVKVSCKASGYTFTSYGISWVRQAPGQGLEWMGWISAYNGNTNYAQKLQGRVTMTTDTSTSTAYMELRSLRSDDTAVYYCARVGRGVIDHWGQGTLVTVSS
VL: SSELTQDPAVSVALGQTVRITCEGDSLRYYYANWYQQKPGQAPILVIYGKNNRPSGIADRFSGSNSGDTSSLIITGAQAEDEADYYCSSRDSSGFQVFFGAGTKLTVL

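The starting antibody came from a phage panning campaign against this peptide. In library AAYL52, one, two or three CDR residues were substituted; doubles and triples were drawn at random. The assay is AlphaSeq: two haploid yeast populations carry antibody and antigen on their surface. Mating (16 h, 30 °C) was followed by selection of diploids and sequencing of their barcodes. Each replicate has its own calibration line, from reference interactions of the BCL2 family. Each pool was mated in three replicate cultures.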

Positions count from residue 1 of the parent VL; L27T puts T in place of L. The read-out is the apparent dissociation constant on a log10 scale (nM): the lower, the stronger. The mean shown is taken over the replicates in which the pair was detected. An entry "no signal" has no value in the source: the pair was not observed among the diploids in any replicate. This suggests poor binding but is not conclusive. Parent in this assay: reference entry 2.31, copy in this library 2.25. Empty control strains, which show no peptide, gave a signal in 28% of pairings with library AAYL52; the median was 3.91 and 95% of these signals were weaker than 2.90. No background was subtracted.

L27T G94L F95I: 5.59 (2 of 3 replicates).
N33E N51V F98A: 4.63 (2 of 3 replicates).
R28Q S92I Q96L: 2.89 (3 of 3 replicates).
E23H N52D S88L: 2.59 (3 of 3 replicates).
D25R N51D G94D: 3.23 (2 of 3 replicates).
N51C P54G F98H: 4.21 (2 of 3 replicates).
Y30K Q96W: 1.17 (3 of 3 replicates).
S26P Y31W: 2.32 (1 of 3 replicates).
L27E Y29I D91W: 5.20 (1 of 3 replicates).
S26M R53H S93F: 3.68 (3 of 3 replicates).
D25A Y31I D91Q: 3.36 (3 of 3 replicates).
N52W S92V Q96N: 3.95 (3 of 3 replicates).
S55W S92E F95S: 2.48 (3 of 3 replicates).
L27M N33V S93W: 3.74 (1 of 3 replicates).
R53E S55H R90W: no signal (0 of 3 replicates).
D25V N33C D91W: 5.01 (3 of 3 replicates).
N52E P54K Q96W: 2.86 (3 of 3 replicates).
R28C K50W S92E: 4.24 (3 of 3 replicates).
R90V S92A G94E: 3.09 (3 of 3 replicates).
L27T Y30K V97C: 3.27 (2 of 3 replicates).
A32P K50T S88V: 3.27 (3 of 3 replicates).
R28Y P54T F95E: 3.26 (2 of 3 replicates).
A32P R90D F95P: 2.79 (3 of 3 replicates).
D25A N33G F98N: 2.91 (2 of 3 replicates).
R53V D91S G94D: 3.71 (2 of 3 replicates).
R28D N51A S55N: 3.14 (3 of 3 replicates).
D25V N33W: 3.17 (1 of 3 replicates).
E23A N52Y F98N: 2.96 (3 of 3 replicates).
R28E N33L P54V: 3.44 (1 of 3 replicates).
S26P N52D V97P: 2.99 (3 of 3 replicates).
G24Y L27I N33I: 4.09 (2 of 3 replicates).
G24M L27D S92C: 2.95 (2 of 3 replicates).
N51Y S88F S89Q: 4.00 (3 of 3 replicates).
G24H S26H A32N: 1.40 (3 of 3 replicates).
E23T G94T Q96V: 2.51 (3 of 3 replicates).
Y29A G49Y P54E: no signal (0 of 3 replicates).
R28M G49S V97Y: 3.48 (3 of 3 replicates).
Y31S A32N R90G: 3.18 (3 of 3 replicates).
Y30G N33W N52C: 3.64 (2 of 3 replicates).
K50P R90T S92T: 3.22 (1 of 3 replicates).
R28H S89P: 3.43 (1 of 3 replicates).
E23F R28I S89Q: 3.54 (2 of 3 replicates).

For reference, 3 entries of the list once more:

Variant G24H S26H A32N gave 1.40 (3 of 3 replicates).
Variant N33E N51V F98A gave 4.63 (2 of 3 replicates).
Variant S26P N52D V97P gave 2.99 (3 of 3 replicates).